# Assay results: PubChem BioAssay AID1415 (NMMLSC, 2008)
# Sequences of proteins named here, by UniProt entry; tags and fusion partners are left off.
# UniProt P09471, whole entry: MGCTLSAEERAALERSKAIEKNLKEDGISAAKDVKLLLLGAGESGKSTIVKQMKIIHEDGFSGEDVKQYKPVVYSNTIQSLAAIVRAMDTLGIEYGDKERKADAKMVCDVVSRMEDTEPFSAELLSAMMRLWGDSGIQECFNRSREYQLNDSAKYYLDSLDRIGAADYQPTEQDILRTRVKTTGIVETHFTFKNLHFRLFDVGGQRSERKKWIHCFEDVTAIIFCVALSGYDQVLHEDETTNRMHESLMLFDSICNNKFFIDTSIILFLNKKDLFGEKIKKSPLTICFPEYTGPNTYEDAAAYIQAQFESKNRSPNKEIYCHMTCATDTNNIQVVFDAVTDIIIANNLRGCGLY
# The list shows a part of the results, in another mix than the full data. Some structures show a salt or complex split into parts, the way the source records it. Calls of active or inactive are those of the source. No stated cut-off is given here; in the data, active means binding response below about 49% or above about 150%; inactive means in between.
# Biological target: Guanine nucleotide-binding protein G(o) subunit alpha (Homo sapiens) (UniProt P09471)
# Assay: modulators of RGS4 binding to Galphao, primary screen, biochemical, multiplexed bead flow cytometry (AID 1415);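 further: fluorescent Galphao activated with aluminum fluoride binding bead-coupled RGS4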
# Details: at 10 µM, actives lie on both sides
row,SMILES,binding response (% of control)
1,COc1ccccc1OP(C)(=O)Nc1ccccc1 (configuration not stated),inactive: 106%
2,CP(=O)(Nc1ccccc1Br)Oc1ccccc1 (configuration not stated),inactive: 104%
3,CP(=S)(Nn1cnnc1)Oc1ccccc1 (configuration not stated),inactive: 117%
4,CP(=O)(Nc1ccccn1)Oc1ccc(Cl)cc1 (configuration not stated),inactive: 102%
5,CCOP(C)(=S)SCC(=O)NC(C)C(=O)O (configuration not stated),inactive: 92.2%
6,CCOC(=O)c1ccc(NP(C)(=O)Oc2ccc(OC)cc2)cc1 (configuration not stated),inactive: 105%
7,CCc1ccc(OP(C)(=O)N2CCN(c3ccc([N+](=O)[O-])cc3)CC2)cc1 (configuration not stated),inactive: 104%
8,CP(=O)(NC(=O)Nc1ccccc1)Oc1ccccc1 (configuration not stated),inactive: 98.5%
9,Cc1cc(C)cc(OP(C)(=O)Nc2ccc(SC(F)(F)F)cc2)c1 (configuration not stated),inactive: 102%
10,CP(=O)(Nc1ccc(SC(F)(F)F)cc1)Oc1ccc(Cl)cc1 (configuration not stated),inactive: 106%
11,Cc1cccc(C)c1OP(C)(=O)Nc1ccc(SC(F)(F)F)cc1 (configuration not stated),inactive: 95.7%
12,CP(=O)(Oc1ccccc1)OC(c1ccccc1)C(F)(F)F (configuration not stated),inactive: 101%
13,CCN(CC)CCCOC(=O)C(O)(c1ccccc1)c1ccccc1,inactive: 102%
14,COc1ccccc1OP(C)(=O)Nc1cc(Cl)ccc1C (configuration not stated),inactive: 102%
15,COc1ccc(OP(C)(=O)Nc2cccc(F)c2)cc1 (configuration not stated),inactive: 94.2%
16,Cc1cc(C)cc(OP(C)(N)=O)c1 (configuration not stated),inactive: 101%
17,CCOC(=O)c1ccc(NP(C)(=O)Oc2ccccc2)cc1 (configuration not stated),inactive: 103%
18,COc1ccccc1OP(C)(=O)Nc1ccc(C)cc1 (configuration not stated),inactive: 94.9%
19,Cc1ccc(NP(C)(=O)Oc2ccccc2)c(C)c1 (configuration not stated),inactive: 103%
20,CC(C)(C)c1ccc(OP(C)(=O)Nc2ccc(SC(F)(F)F)cc2)cc1 (configuration not stated),inactive: 104%
21,Cc1cccc(C)c1OP(C)(N)=O (configuration not stated),inactive: 102%

row,SMILES,binding response (% of control)
1,O=[N+]([O-])c1ccc2c(c1)C=Nc1ccccc1O2,inactive: 112%
2,CC1=NCCc2c1[nH]c1ccccc21.O=[N+]([O-])c1cc([N+](=O)[O-])c(O)c([N+](=O)[O-])c1,inactive: 112%
3,O=C(O)c1cccc(Nc2c([N+](=O)[O-])cc([N+](=O)[O-])cc2[N+](=O)[O-])c1,inactive: 102%
4,CP(=O)(Nc1cccc(Br)c1)Oc1ccccc1 (configuration not stated),inactive: 100%
5,Cc1cc(C)cc(OP(C)(=O)Nc2ccccn2)c1 (configuration not stated),inactive: 104%
6,Cc1ccc(C)c(NP(C)(=O)Oc2ccccc2)c1 (configuration not stated),inactive: 83.4%
7,Cc1cc(C)cc(OP(C)(=O)Nc2ccc(C)cc2C)c1 (configuration not stated),inactive: 98.3%
8,CCOC(=O)c1ccc(NP(C)(=O)Oc2cc(C)cc(C)c2)cc1 (configuration not stated),inactive: 105%
9,COc1ccccc1OP(C)(=O)Nc1cccc(Br)c1 (configuration not stated),inactive: 99.7%
10,Cc1nc2ccc3ccccc3c2s1.O=[N+]([O-])c1cc([N+](=O)[O-])c(O)c([N+](=O)[O-])c1,inactive: 99.2%
11,O=[N+]([O-])c1cc([N+](=O)[O-])c(-n2nnc3ccccc32)c([N+](=O)[O-])c1,inactive: 94.4%
12,CP(=O)(Nc1ccc(SC(F)(F)F)cc1)Oc1ccccc1 (configuration not stated),inactive: 98.1%
13,CCCOc1ccc(NP(C)(=O)Oc2ccc(Cl)cc2)cc1 (configuration not stated),inactive: 101%
14,CN1CCCCC1COC(=O)C1(O)c2ccccc2CCc2ccccc21 (configuration not stated),inactive: 104%
15,COc1ccccc1OP(C)(=O)Nc1c(C)cccc1C (configuration not stated),inactive: 98.5%
16,O=[N+]([O-])c1cc([N+](=O)[O-])c(Nc2nnnn2CCO)c([N+](=O)[O-])c1,inactive: 98.6%
17,CCOC(=O)C(CC)C1=NC(C)(C)Cc2ccccc21.O=[N+]([O-])c1cc([N+](=O)[O-])c(O)c([N+](=O)[O-])c1 (configuration not stated),inactive: 99.8%
18,Cc1cc(-c2cccc3ccccc23)c(C)cn1.O=[N+]([O-])c1cc([N+](=O)[O-])c(O)c([N+](=O)[O-])c1,inactive: 116%
19,O=[N+]([O-])c1cc([N+](=O)[O-])c(NCC2CCS(=O)(=O)C2)c([N+](=O)[O-])c1 (configuration not stated),inactive: 97.5%
20,O=[N+]([O-])c1ccc(OP2(=O)COCCO2)cc1 (configuration not stated),inactive: 94.7%
21,COc1ccc(NP(C)(=O)Oc2ccccc2OC)cc1 (configuration not stated),inactive: 104%

row,SMILES,binding response (% of control)
1,CN(C)CCOC(=O)C(O)(c1ccccc1)C1CCCCC1 (configuration not stated),inactive: 103%
2,COc1ccc(OP(C)(=O)Nc2cccc(Br)c2)cc1 (configuration not stated),inactive: 97.7%
3,Cc1ccccc1NP(C)(=O)Nc1ccccc1C,inactive: 102%
4,CP(=O)(Nc1ccc2c(c1)OCCO2)Oc1ccccc1 (configuration not stated),inactive: 88.4%
5,CCOP(C)(=S)SCC(=O)NC(C)(CC)C(=O)O (configuration not stated),inactive: 104%
6,CP(=O)(Nc1ccc(SC(F)(F)F)cc1)Oc1ccc(F)cc1 (configuration not stated),inactive: 96.6%
7,COc1ccc2c(c1O)-c1c(O)c(OC)cc3c1[C@H](C2)[N+](C)(C)CC3.O=[N+]([O-])c1cc([N+](=O)[O-])c([O-])c([N+](=O)[O-])c1[O-],inactive: 95.7%
8,O=C(OCCN1CCN(CCOCc2ccccc2)CC1)C(O)(c1ccccc1)c1ccccc1,inactive: 97.9%
9,O=C(OC1CN2CCC1CC2)c1ccc([N+](=O)[O-])cc1 (configuration not stated),inactive: 101%
10,CC(C)c1ccc(OP(C)(=O)Nc2ccc(SC(F)(F)F)cc2)cc1 (configuration not stated),inactive: 101%
11,CP(=O)(Nc1ccccc1F)Oc1ccccc1 (configuration not stated),inactive: 89.6%
12,CCCCCOc1ccc(NP(C)(=O)Oc2ccc(Cl)cc2Cl)cc1 (configuration not stated),inactive: 94.9%
13,CP(=O)(Nc1ccccc1)Oc1ccc(F)cc1 (configuration not stated),inactive: 99.4%
14,COc1ccc(OP(C)(=O)Nc2ccc(SC(F)(F)F)cc2)cc1 (configuration not stated),inactive: 98.2%
15,CCOC(=O)c1ccc(NP(C)(=O)Oc2ccc(F)cc2)cc1 (configuration not stated),inactive: 98.2%
16,CP(=O)(OCCOc1ccccc1)OCCOc1ccccc1,inactive: 101%
17,CP(=O)(Nc1ccc(Cl)cc1Cl)Oc1ccccc1 (configuration not stated),inactive: 90.2%
18,Cc1nc2ccc3ccccc3c2o1.O=[N+]([O-])c1cc([N+](=O)[O-])c(O)c([N+](=O)[O-])c1,inactive: 103%
19,COc1ccc(OP(C)(=O)Nc2ccccc2Br)cc1 (configuration not stated),inactive: 99.6%
20,COc1ccccc1OP(C)(=O)Nc1ccc(C)c(C)c1 (configuration not stated),inactive: 101%
21,Cc1cc(C)cc(OP(C)(=O)Nc2cccc(C(F)(F)F)c2)c1 (configuration not stated),inactive: 101%

row,SMILES,binding response (% of control)
1,CCc1ccc(OP(C)(=O)O)cc1,inactive: 99.8%
2,CP(=O)(Nc1ccccn1)Oc1ccccc1 (configuration not stated),inactive: 100%
3,COc1ccccc1OP(C)(=O)Nc1ccc(C)cc1C (configuration not stated),inactive: 97.4%
4,O=[N+]([O-])c1cc([N+](=O)[O-])c(Nc2ccccn2)c([N+](=O)[O-])c1,inactive: 102%
5,Cc1c(NP(C)(=O)Oc2ccc(C(C)C)cc2)c(=O)n(-c2ccccc2)n1C (configuration not stated),inactive: 98.1%
6,CN(C)CCOC(=O)C(O)(c1ccccc1)C1CCCC1 (configuration not stated),inactive: 103%
7,COc1ccc(OP(C)(=O)Nc2ccccn2)cc1 (configuration not stated),inactive: 113%
8,COc1ccccc1OP(C)(=O)Nc1ccc(Br)cc1 (configuration not stated),inactive: 91.8%
9,CN(C)C(=O)c1c([N+](=O)[O-])cc([N+](=O)[O-])cc1[N+](=O)[O-],inactive: 93.1%
10,CP(=O)(Nc1ccc(Cl)cc1)Oc1ccc(F)cc1 (configuration not stated),inactive: 101%
11,CC(C)(C)c1ccc(OP(C)(=O)O)cc1,inactive: 98.7%
12,COc1ccccc1OP(C)(=O)Nc1ccccc1Br (configuration not stated),inactive: 102%
13,CP(=O)(Oc1ccccc1)N1CCOC1=O (configuration not stated),inactive: 102%
14,CCc1ccc(OP(C)(=O)Nc2cccnc2)cc1 (configuration not stated),inactive: 99.4%
15,O=C(OCCCN1CCCC1)C(O)(c1ccccc1)C1CCCCC1 (configuration not stated),inactive: 113%
16,CCN(CC)CC(O)COC(=O)C(O)(c1ccccc1)C1CCCCC1 (configuration not stated),inactive: 101%
17,COc1ccc(OP(C)(=O)Nc2ccc(Br)cc2)cc1 (configuration not stated),inactive: 96.8%
18,CP(=O)(OC12CC3CC(CC(C3)C1)C2)OC12CC3CC(CC(C3)C1)C2,inactive: 102%
19,CCOC(=O)c1ccc(NP(C)(=O)Oc2ccc(Cl)cc2)cc1 (configuration not stated),inactive: 101%
